US20140243210A1, “PURIFICATION OF IMMUNOGLOBULINS USING AFFINITY CHROMATOGRAPHY AND PEPTIDE LIGANDS” (priority 2005, published 2014)

Test system: Fc fragment of human IgG (HIgG)
Experiment: Secondary screening, batch format, competitive and non-competitive modes
Format: binding
Conditions: first round
Description: A secondary screening step was conducted in a batch format to confirm the binding of the target protein to the peptide ligands from the primary screening. Some peptides that bound weakly to the target protein could be eliminated by the secondary screening. A total of nine leads were examined together with two positive controls, Protein A Sepharose Cl-4B and MABsorbent A2P, and two negative controls, acetylated and nonacetylated Toyopearl amino resin (Tosoh Bioscience). The batch format was used in both competitive and non-competitive modes. The non-competitive mode involved screening using only pure target proteins in PBS buffer. For the competitive mode, target proteins were spiked into mammalian culture medium MEM (Minimum Essential Medium) containing 10% fetal calf serum (FCS) and 5% tryptose phosphate broth (TPB).
Two target proteins, the Fc fragment of human IgG (HIgG) and intact HIgG, were applied at a concentration of 1 μM. […] After centrifugation each solution was collected into scintillation fluid for radioactivity counting. The total unbound protein was determined by combining the counts of unbound protein and the wash of PBS. Finally, resins were suspended in scintillation liquid and counted for radioactivity in the same manner, allowing a total radioactivity balance.

Substance: Protein A: protein A immobilized by the CNBr method to 4% cross-linked agarose beads (Amersham Biosciences); positive control [reference compound]
- Bound %, Fc fragment, Non-competitive (14C-Fc 1 μM in PBS): 93.67%
- Bound %, Fc fragment, Competitive (14C-Fc 1 μM spiked in MEM (10% FCS, 5% TPB)): 78.63%
